The values below are quoted from earlier work in patent publication US10729694B2 (AI Therapeutics, Inc., priority 2015, dated 2020).

The series relates to adipocytes. Conditions: cited from earlier work.

Usually IC50 stands for the point on the concentration scale where inhibition reaches its midpoint. Take `Nc1ccc(C(=O)Nc2cccc(-c3nc(N4CCOCC4)c4oc5ncccc5c4n3)c2)cn1` [YM-201636, 6-amino-N-(3-(4-morpholinopyrido[3′,2′:4,5]furo[3,2-d]pyrimidin-2-yl)phenyl)nicotinamide]: the IC50 was 0.054 µM.
